Laboratory results reported in patent US20250264455.

Target: T1, QtEnc^FLAG
T1 chain: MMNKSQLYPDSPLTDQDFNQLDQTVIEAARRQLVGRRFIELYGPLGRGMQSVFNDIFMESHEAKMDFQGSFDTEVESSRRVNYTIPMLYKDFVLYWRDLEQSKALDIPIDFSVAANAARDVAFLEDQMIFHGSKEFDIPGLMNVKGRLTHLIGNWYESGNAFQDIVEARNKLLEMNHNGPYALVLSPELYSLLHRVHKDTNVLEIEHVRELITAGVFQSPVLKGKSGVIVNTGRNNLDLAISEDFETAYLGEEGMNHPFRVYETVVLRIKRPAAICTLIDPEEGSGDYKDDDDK

B1: DD-CgPPK2b-QtSig (protein)
chain: [left out - about 100 residues]GSGVGKLPIMAETNENDLPVIDLAQIEGYVVDDSDEDDPVLLRPDGTPIETWREDFPYEERVTREDYEKVKRSLQIELLKWQNWTKETGQRHIILFEGRDAAGKGGTIKRFNEHLNPRGARTVALEKPSPRESTSWYFQRYIQHFPAAGEIVFFDRSWYNRSGVERVMGFCTESQHAEFLREVPMLENMILGSGISLTKFWFSVTRKEQRTRFAIRQVDPVRQWKLSPMDLASLDRWDDYTRAKEEQFRYTDTDESPWITIKSNDKKRARINAMRYVLSKFDYTDKDYELVGEPDPKVVLRGRDQIGDGGGGSGGGGSKGFTVGSLIQ
  DAPI-stained polyP fluorescence at the encapsulin band on Clear-Native PAGE: The UV fluorescence imaging of the gel (upper panel) reveals bands indicating intraluminal polyP accumulation. No UV fluorescent bands are observed when no cargo protein is co-expressed.
